Results published in patent US20240060126.
Numbering of substitutions follows the chain as printed. Numbers in names are those of the source.

Key:
[1] = target: T1, MspA-((Del-L74/G75/D118/L119)G1A/D56N/E59F/L88N/D90N/D91N/Q126R/D134R/E139K)8
T1 chain: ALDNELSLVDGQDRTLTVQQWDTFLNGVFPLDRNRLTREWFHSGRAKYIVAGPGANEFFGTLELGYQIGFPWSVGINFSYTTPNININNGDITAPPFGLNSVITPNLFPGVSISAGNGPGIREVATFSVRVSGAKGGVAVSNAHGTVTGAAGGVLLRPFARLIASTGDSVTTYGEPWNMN

[2] = target: T2, MspA-((Del-L74/G75/D118/L119)D56F/E59R/L88N/D90N/D91N/Q126R/D134R/E139K)8
T2 chain: T1 chain with A1G, N56F, F59R

[3] = target: T3, MspA-((Del-L74/G75/D118/L119)D56N/E59Y/L88N/D90N/D91N/Q126R/D134R/E139K)8
T3 chain: T1 chain with A1G, F59Y

[4] = target: T4, MspA-((Del-L74/G75/D118/L119)D56L/E59L/L88N/D90N/D91N/Q126R/D134R/E139K)8
T4 chain: T1 chain with A1G, N56L, F59L

[5] = target: T5, MspA-((Del-L74/G75/D118/L119)D56N/E59R/L88N/D90N/D91N/Q126R/D134R/E139K)8
T5 chain: T1 chain with A1G, F59R

B1: T4 Dda-E94C/C109A/C136A/A360C (SEQ ID NO: 24 with mutations E94C/C109A/C136A/A360C) (protein)
chain: MTFDDLTEGQKNAFNIVMKAIKEKKHHVTINGPAGTGKTTLTKFIIEALISTGETGIILAAPTHAAKKILSKLSGKEASTIHSILKINPVTYECNVLFEQKEVPDLAKARVLICDEVSMYDRKLFKILLSTIPPWATIIGIGDNKQIRPVDPGENTAYISPFFTHKDFYQCELTEVKRSNAPIIDVATDVRNGKWIYDKVVDGHGVRGFTGDTALRDFMVNYFSIVKSLDDLFENRVMAFTNKSVDKLNSIIRKKIFETDKDFIVGEIIVMQEPLFKTYKIDGKPVSEIIFNNGQLVRIIEAEYTSTFVKARGVPGEYLIRHWDLTVETYGDDEYYREKIKIISSDEELYKFNLFLGKTCETYKNWNKGGKAPWSDFWDAKSQFSKVKALPASTFHKAQGMSVDRAFIYTPCIHYADVELAQQLLYVGVTRGRYDVFYV
- % bases missed in construct X [1]: less than 12% bases missed in construct X
- % bases missed in construct X [2]: less than 12% bases missed in construct X
- % bases missed in construct X [3]: less than 12% bases missed in construct X
- % bases missed in construct X [4]: less than 12% bases missed in construct X
- % bases missed in construct X [5]: less than 12% bases missed in construct X

B2: T4 Dda-E94C/C109A/C136A/K199L/A360C (protein)
chain: B1 chain with K199L
- % bases missed in construct X [1]: less than 12% bases missed in construct X
- slips forward per kilobase [1]: produced the lowest slips forward per kilobase
- % bases missed in construct X [2]: less than 12% bases missed in construct X
